From patent US8624079B2, “Knockin mouse with a disruption in a PXR gene expressing human PXR” (ITI Scotland Limited, priority 2007, dated 2014)
Read-outs that look alike come from different tables or passages of the source.

System: cytochrome P450 enzymes
Conditions: for induction of 6-beta-hydroxylation of testosterone: 10 mg/kg

CO[C@H]1/C=C/O[C@@]2(C)Oc3c(C)c(O)c4c(O)c(c(/C=N/N5CCN(C)CC5)c(O)c4c3C2=O)NC(=O)/C(C)=C\C=C\[C@H](C)[C@H](O)[C@@H](C)[C@@H](O)[C@@H](C)[C@H](OC(C)=O)[C@@H]1C [rifampicin]
induction of 6-beta-hydroxylation of testosterone (huPXR mice, 4 x ip daily): significant induction
induction of 6-beta-hydroxylation of testosterone (mouse, in vivo, ip): no induction
induction of 16-beta-hydroxylation of testosterone (wild type mice, rifampicin 3 and 10 mg/kg, 4 x ip daily): not in the wild type
